For this experiment, the system named is Adenosine A1 receptor (Rattus norvegicus) / A3 receptor (Homo sapiens). As to the kind of experiment: Ratio of binding affinities between rA1 and human A3.

Each structure is given as a SMILES string.

As for `Cc1cc(C)c(-c2oc3ccc(Cl)cc3c(=O)c2Cl)c(C)c1`, the Ratio is 20.

The values above are taken from ChEMBL document CHEMBL1129333, “Synthesis and biological activities of flavonoid derivatives as A3 adenosine receptor antagonists” (J Med Chem, 1996).
